“And” between values parts separate entries of the source, which are not always exact repeats. Identical values can stand only once. Like-named read-outs stand apart in the source and are kept apart here.
Test system: mice challenged with DFP

| Compound | mice surviving 24 hours (120 mg/kg total ip, 20 minutes prior to and 5 minutes post DFP) | mice surviving 24 hours (given about 1-5 minutes after 1.6×LD50 s.c. DFP) | protection against DFP lethality in vivo (mice, DFP challenge) | mice surviving 24 hours (5 mg in feed 1 day prior to 1.6×LD50 s.c. DFP, listed as ADQ) | molar excess of 2-PAM needed for similarly protective effects (mice, DFP challenge) [fold] |
| --- | --- | --- | --- | --- | --- |
| CCN(CC)Cc1cc(N)ccc1O | 5/5 | 5 out of 5 | complete protection | – | – |
| CCN(CC)Cc1cc(Nc2ccnc3cc(Cl)ccc23)ccc1O | – | – | provides protection | 3 out of 3 and 5 out of 5 | – |
| O=C(NCCCn1ccnc1)c1cc(-c2ccncc2)nc2ccccc12 | – | – | protect against DFP lethality | – | – |
| pralidoxine | – | – | ineffective | – | 100 |
| Clc1ccc(OCCCCCn2ccnc2)c(Cl)c1 | – | – | protect against DFP lethality | – | – |
